Reference: ChEMBL document CHEMBL5055648, “Design, synthesis, and biological evaluation of novel Bcr-AblT315I inhibitors incorporating amino acids as flexible linker” (Bioorg Med Chem, 2021)

By UniProt entry, the sequences of proteins in these tests, tags left out. Where a name states a change or a piece, a line headed by the entry shows the natural chain unless it says otherwise.
UniProt P00519, whole entry, looked up: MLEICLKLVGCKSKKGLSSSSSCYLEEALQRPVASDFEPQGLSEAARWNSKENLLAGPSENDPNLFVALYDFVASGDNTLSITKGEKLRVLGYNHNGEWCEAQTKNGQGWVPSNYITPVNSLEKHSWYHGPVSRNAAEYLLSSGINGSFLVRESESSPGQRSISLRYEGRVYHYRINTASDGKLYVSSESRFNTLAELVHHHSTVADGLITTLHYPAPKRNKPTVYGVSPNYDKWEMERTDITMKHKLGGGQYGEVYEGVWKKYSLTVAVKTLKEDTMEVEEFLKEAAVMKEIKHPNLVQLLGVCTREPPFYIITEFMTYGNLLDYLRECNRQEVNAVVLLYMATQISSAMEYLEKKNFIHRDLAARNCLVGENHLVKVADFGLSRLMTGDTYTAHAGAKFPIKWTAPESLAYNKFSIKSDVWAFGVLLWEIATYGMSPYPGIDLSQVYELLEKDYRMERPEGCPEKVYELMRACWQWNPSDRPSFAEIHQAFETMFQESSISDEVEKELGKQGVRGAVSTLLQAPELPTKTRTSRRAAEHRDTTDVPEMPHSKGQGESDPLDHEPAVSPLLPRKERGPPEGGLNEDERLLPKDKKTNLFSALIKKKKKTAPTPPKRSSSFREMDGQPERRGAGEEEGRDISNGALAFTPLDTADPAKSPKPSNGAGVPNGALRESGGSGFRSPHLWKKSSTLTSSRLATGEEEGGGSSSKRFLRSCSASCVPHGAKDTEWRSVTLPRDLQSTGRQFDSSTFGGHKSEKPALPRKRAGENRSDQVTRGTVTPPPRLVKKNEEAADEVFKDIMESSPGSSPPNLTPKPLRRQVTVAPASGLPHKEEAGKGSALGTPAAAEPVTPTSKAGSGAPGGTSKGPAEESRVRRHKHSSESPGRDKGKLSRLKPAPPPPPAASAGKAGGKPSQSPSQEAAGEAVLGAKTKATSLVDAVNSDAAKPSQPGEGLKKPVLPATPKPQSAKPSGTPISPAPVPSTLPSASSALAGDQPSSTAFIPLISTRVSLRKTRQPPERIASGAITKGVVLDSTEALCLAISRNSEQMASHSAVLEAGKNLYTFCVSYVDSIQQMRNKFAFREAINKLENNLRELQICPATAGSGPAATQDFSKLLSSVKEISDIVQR
UniProt P11274: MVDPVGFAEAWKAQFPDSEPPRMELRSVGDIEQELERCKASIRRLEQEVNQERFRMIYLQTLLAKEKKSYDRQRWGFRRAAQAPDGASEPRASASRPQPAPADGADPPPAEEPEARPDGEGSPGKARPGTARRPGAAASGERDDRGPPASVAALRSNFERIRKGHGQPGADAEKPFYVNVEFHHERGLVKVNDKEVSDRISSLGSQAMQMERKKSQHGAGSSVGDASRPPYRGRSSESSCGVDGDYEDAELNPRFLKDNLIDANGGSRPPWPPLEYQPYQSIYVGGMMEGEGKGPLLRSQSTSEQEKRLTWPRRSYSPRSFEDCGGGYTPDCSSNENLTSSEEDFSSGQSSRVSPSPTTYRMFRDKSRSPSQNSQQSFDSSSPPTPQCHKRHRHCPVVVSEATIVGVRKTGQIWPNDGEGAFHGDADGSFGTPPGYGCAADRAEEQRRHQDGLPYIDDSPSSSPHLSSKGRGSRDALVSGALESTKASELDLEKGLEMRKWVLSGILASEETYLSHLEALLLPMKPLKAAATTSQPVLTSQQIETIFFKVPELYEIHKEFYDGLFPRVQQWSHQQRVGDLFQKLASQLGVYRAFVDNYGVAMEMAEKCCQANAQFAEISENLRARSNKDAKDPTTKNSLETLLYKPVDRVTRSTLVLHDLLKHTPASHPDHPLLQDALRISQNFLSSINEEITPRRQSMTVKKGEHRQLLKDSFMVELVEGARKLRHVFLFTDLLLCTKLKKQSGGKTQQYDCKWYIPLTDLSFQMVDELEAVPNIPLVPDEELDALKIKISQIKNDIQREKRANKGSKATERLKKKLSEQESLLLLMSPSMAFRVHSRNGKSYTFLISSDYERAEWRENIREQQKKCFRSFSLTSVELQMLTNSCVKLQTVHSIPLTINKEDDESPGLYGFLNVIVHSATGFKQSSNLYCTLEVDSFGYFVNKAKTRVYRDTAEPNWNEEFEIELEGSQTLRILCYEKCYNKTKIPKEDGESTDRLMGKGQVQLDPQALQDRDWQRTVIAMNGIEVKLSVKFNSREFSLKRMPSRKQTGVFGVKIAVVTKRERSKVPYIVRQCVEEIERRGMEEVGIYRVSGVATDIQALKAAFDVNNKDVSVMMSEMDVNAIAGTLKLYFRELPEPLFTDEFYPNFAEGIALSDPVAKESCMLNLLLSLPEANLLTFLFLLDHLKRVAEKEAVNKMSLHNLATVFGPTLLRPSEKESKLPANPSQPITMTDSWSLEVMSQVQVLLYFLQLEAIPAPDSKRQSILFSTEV

How the values were obtained:
[1] = target: T1, Bcr/Abl fusion protein (Homo sapiens) (UniProt P00519+P11274); assay: Inhibition of Bcr-Abl phosphorylation in human K562 cells assessed as phosphorylated ABL protein level at 5 uM measured after 48 hrs by Western blot analysis; assay type: cell-based
[2] = target: T1, Bcr/Abl fusion protein (Homo sapiens); assay: Inhibition of Bcr-Abl phosphorylation in human K562 cells assessed as phosphorylated ABL protein level at 15 uM measured after 48 hrs by Western blot analysis; assay type: cell-based

C[C@H](NC(=O)c1ccc(-c2ccc(NC(=O)C(C)(C)C)nc2)cc1)C(=O)Nc1ccc(Cl)c(C(F)(F)F)c1
fold change (FC) [1]: 0.593
fold change (FC) [2]: 0.332
